From ChEMBL document CHEMBL1125721, “Highly selective kappa opioid analgesics. 4. Synthesis of some conformationally restricted naphthalene derivatives with high receptor affinity and selectivity” (1991)
Where “and” joins values, the source holds several entries; their conditions need not be identical. Equal values may be shown once. Only a part of the results on these compounds is given; other tests are left out.

The chains behind the UniProt entries cited, without tags or fusion partners.
UniProt P41144, whole entry: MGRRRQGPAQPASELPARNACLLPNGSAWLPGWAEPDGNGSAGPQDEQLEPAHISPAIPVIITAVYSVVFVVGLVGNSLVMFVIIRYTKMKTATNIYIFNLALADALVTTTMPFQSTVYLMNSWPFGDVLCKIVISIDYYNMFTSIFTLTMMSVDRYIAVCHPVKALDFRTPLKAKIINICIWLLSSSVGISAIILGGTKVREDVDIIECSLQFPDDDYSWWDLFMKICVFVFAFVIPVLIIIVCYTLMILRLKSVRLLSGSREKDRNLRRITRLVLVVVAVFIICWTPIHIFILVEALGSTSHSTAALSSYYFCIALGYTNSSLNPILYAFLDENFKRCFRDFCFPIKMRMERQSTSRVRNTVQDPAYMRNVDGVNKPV
UniProt P97266, whole entry: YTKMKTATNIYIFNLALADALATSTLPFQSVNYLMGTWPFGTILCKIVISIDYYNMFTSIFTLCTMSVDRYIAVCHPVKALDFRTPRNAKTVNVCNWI

Tests used:
[1] = target: Kappa-type opioid receptor (Cavia porcellus, UniProt P41144); assay: Opioid receptor kappa affinity, determined with [3H]etorphine in the presence of excess unlabeled [D-Ala2-MePhe4-Glyol5]-enkephalin
[2] = target: T1, Mu-type opioid receptor (Cavia porcellus, UniProt P97266); assay: Compound was evaluated for the opioid receptor mu affinity determined with [3H][D-Ala2-MePhe4-Gly-ol5]-enkephalin (DAGOL) in the presence of excess unlabeled DAGOL to suppress mu binding.
[3] = target: T1, Mu-type opioid receptor; assay: Compound was evaluated for the Opioid receptor mu affinity determined with [3H][D-Ala2-MePhe4-Gly-ol5]-enkephalin (DAGOL) in the presence of excess unlabeled DAGOL to suppress mu binding.
[4] = tested on: Rattus norvegicus; assay: Dose required to produce 50% of the maximum possible analgesic effect evaluated through rat paw pressure assay with the compound being administered through intravenous route.

Structure (SMILES) | Ki [1] | Ki [2] | Ki [3] | MPE50 [4]
CC1c2cccc3cccc(c23)C1C(=O)N(C)[C@H]1CCC2(CCCO2)C[C@@H]1N1CCCC1 (some centres undefined) | 0.37 nM | 244 nM | – | –
CN(C(=O)C1CCc2csc3cccc1c23)[C@H]1CCC2(CCCO2)C[C@@H]1N1CCCC1 (some centres undefined) | 11.1 nM and 4.65 nM | 62 nM and 507 nM | – | –
CN(C(=O)C1CCc2c(Br)sc3cccc1c23)[C@H]1CCC2(CCCO2)C[C@@H]1N1CCCC1 (some centres undefined) | 272 nM and 222 nM | – | – | –
CC(C(=O)N(C)[C@H]1CCCC[C@@H]1N1CCCC1)c1cccc2sccc12 (some centres undefined) | 172 nM and 361 nM and 176 nM | > 1000 nM | 2460 nM | –
CC1c2cccc3cccc(c23)C1C(=O)N(C)[C@H]1CCC2(CCCO2)C[C@@H]1N1CCCC1.Cl (some centres undefined) | – | – | – | 0.014 mg/kg
